Source: patent US8217035B2, “Pyrimidine derivatives used as PI-3-kinase inhibitors” (Novartis AG, priority 2006, dated 2012)

Protein sequences, listed by entry. Tags and fused reporters are not part of them.
UniProt P42336, whole entry: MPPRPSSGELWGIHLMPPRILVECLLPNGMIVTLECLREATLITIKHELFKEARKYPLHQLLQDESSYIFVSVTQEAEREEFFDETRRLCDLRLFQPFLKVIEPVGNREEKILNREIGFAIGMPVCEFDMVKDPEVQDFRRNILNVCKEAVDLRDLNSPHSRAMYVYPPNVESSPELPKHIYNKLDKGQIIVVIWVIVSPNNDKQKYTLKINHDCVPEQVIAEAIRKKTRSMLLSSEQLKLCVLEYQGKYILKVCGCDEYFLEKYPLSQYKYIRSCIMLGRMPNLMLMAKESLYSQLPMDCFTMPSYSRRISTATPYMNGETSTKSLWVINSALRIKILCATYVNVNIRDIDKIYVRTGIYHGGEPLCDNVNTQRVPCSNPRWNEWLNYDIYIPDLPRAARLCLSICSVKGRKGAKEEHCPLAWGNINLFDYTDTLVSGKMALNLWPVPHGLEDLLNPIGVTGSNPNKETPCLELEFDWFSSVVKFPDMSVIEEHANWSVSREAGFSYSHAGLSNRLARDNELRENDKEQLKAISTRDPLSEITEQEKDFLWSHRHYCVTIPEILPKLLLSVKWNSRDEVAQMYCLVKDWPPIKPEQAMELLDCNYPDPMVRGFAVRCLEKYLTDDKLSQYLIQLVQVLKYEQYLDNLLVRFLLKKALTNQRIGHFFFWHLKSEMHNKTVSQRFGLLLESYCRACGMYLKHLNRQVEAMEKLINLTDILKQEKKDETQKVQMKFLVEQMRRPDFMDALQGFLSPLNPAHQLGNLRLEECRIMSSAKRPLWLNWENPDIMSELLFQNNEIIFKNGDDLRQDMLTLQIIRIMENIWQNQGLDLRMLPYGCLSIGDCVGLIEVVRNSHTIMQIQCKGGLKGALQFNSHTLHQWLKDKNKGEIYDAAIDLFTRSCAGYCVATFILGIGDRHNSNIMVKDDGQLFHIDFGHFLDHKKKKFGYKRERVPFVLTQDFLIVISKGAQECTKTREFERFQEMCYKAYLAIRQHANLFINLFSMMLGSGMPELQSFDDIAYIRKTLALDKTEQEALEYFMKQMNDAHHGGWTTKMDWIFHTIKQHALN
UniProt P27986, whole entry partner: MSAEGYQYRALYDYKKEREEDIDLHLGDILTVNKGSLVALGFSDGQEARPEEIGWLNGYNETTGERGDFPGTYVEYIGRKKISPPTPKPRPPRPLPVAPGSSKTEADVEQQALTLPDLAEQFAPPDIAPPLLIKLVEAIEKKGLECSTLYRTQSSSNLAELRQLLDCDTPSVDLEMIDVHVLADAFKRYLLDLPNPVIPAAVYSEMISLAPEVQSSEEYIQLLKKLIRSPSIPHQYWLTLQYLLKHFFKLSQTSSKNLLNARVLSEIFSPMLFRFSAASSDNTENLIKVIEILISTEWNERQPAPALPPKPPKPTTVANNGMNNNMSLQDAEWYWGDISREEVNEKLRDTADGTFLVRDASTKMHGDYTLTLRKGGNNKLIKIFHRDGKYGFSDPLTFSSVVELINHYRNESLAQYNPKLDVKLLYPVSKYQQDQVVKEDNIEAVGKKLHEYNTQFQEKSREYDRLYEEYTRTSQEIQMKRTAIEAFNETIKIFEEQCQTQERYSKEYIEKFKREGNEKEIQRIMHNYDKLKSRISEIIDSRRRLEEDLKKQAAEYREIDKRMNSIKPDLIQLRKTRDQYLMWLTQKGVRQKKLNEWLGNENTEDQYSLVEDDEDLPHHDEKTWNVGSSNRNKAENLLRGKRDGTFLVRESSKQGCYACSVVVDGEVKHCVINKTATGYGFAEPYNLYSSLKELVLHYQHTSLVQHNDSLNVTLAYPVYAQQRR

Tests used:
[1] = tested on: A2780 ovarian cancer cells; experiment: Cellular proliferation in A2780 cells, Cell Titer Glo (Biological Method 4); type: cell-based; details: read-out: Cellular Proliferation, EC50; ovarian cancer cell line A2780, Biological Method 4
PI3 kinase alpha = PI3 kinase alpha (Homo sapiens, UniProt P42336); experiment: PI3K ATP depletion assay (Biological Method 1, Assay 3; KinaseGlo luminescence); type: biochemical; details: read-out: PI3 Kinase Alpha, IC50

Compound: CS(=O)(=O)c1cccc(-c2cc(-c3ccc(N)nc3)nc(N3CCOCC3)n2)c1
- EC50 [1]: < 10 µM
- IC50 (PI3 kinase alpha): < 1 µM
